What was measured:
[1] = target: Rhodesain (Trypanosoma brucei rhodesiense) (UniProt Q95PM0); assay: Irreversible inhibition of Trypanosoma brucei rhodesiense rhodesain assessed as Kinact using Cbz-Phe-Arg-AMC as fluorogenic substrate by fluorometric assay
[2] = target: Rhodesain (Trypanosoma brucei rhodesiense) (UniProt Q95PM0); assay: Irreversible inhibition of Trypanosoma brucei rhodesiense rhodesain assessed as second order rate constant using Cbz-Phe-Arg-AMC as fluorogenic substrate by fluorometric assay
Procathepsin L [3] = target: T1, Procathepsin L (Homo sapiens, UniProt P07711); assay: Irreversible inhibition of human Cathepsin L assessed as Kinact using Cbz-Phe-Arg-AMC as fluorogenic substrate by fluorometric assay
Procathepsin L [4] = target: T1, Procathepsin L; assay: Irreversible inhibition of human Cathepsin L assessed as second order rate constant using Cbz-Phe-Arg-AMC as fluorogenic substrate by fluorometric assay
Cathepsin B = Cathepsin B (Homo sapiens, UniProt P07858); assay: Irreversible inhibition of human Cathepsin B assessed as Kinact using Cbz-Phe-Arg-AMC as fluorogenic substrate by fluorometric assay

Amino acid sequences for entries named in this document (tags omitted). A change or cut given only in a name is not applied to a line headed by its entry.
UniProt P07711: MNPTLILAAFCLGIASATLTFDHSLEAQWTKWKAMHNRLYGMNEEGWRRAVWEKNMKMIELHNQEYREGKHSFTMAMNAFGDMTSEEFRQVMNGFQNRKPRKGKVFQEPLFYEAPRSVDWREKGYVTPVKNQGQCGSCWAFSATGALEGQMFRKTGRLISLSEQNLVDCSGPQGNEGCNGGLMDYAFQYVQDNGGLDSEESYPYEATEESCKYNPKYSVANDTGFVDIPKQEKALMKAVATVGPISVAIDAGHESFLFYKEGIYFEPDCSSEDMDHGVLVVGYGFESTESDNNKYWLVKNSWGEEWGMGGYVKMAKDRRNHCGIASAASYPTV

Row | SMILES | Kinact [1] [s⁻¹] | Second-order inactivation rate constant (kinact/Ki) [2] | Kinact (Procathepsin L [3]) [s⁻¹] | Second-order inactivation rate constant (Procathepsin L [4]) | Kinact (Cathepsin B) [s⁻¹]
1 | O=C(NCc1ccccc1C(=O)N[C@H](/C=C/S(=O)(=O)c1ccccc1)CCc1ccccc1)c1cccc(O)c1 | 0.0022 | 0.033 10^5/M/s |  |  | 
2 | O=C(NCc1ccccc1C(=O)N[C@H](/C=C/S(=O)(=O)c1ccccc1)CCc1ccccc1)c1ccccc1 | 0.0021 | 0.21 10^5/M/s | 0.0077 | 5.17 10^3/M/s | 0.0033
3 | O=C(Cc1ccccc1C(=O)N[C@H](/C=C/S(=O)(=O)c1ccccc1)CCc1ccccc1)Nc1cccc(C(=O)O)c1 | 0.0074 | 4.2 10^2/M/s |  |  | 
4 | CN1CCN(C(=O)N[C@@H](Cc2ccccc2)C(=O)N[C@H](/C=C/S(=O)(=O)c2ccccc2)CCc2ccccc2)CC1 [K-777] |  |  |  | 9.5 10^5/M/s | 
5 | O=C(NCc1ccccc1C(=O)N[C@H](/C=C/S(=O)(=O)Oc1ccccc1)CCc1ccccc1)c1ccncc1 | 0.0078 | 8.67 10^5/M/s | 0.0066 | 5.74 10^3/M/s | 0.0027
6 | CC(=O)N(Cc1ccccc1C(=O)N[C@H](/C=C/S(=O)(=O)c1ccccc1)CCc1ccccc1)C(C)=O | 0.0017 | 0.018 10^5/M/s |  |  | 
7 | O=C(O)c1cccc(C(=O)NCc2ccccc2C(=O)N[C@H](/C=C/S(=O)(=O)c2ccccc2)CCc2ccccc2)c1 | 0.0048 | 0.0065 10^5/M/s |  |  | 
8 | CC(=O)NCc1ccccc1C(=O)N[C@H](/C=C/S(=O)(=O)c1ccccc1)CCc1ccccc1 | 0.0035 | 0.0075 10^5/M/s |  |  | 
9 | CNC(=O)Cc1ccccc1C(=O)N[C@H](/C=C/S(=O)(=O)c1ccccc1)CCc1ccccc1 | 0.0026 | 5.53 10^3/M/s |  |  | 
10 | O=C(Cc1ccccc1C(=O)N[C@H](/C=C/S(=O)(=O)c1ccccc1)CCc1ccccc1)Nc1ccc(C(=O)O)cc1 | 0.001 | 3.45 10^3/M/s |  |  | 
